In patent publication US20060035905A1, “Formulations of phosphodiesterase 5 inhibitors and methods of use” (Becton, Dickinson and Company, priority 2004, published 2006):
Marks after values point to notes of the source that are not given here.

Legend:
Yucatan pigs = assay: Tissue irritancy after injection of sildenafil solutions in Yucatan pigs; type: in vivo; conditions: 24 hr after injection
[1] = ID 1.5 mm

Substance | tissue irritancy (in words) (Yucatan pigs) | Tmax [1] [min] | Clearance ([1]; dose normalized) [mL/min/kg] | AUC ([1]; up to last sampling time point) [ng·h/mL] | Bioavailability ([1]; versus IV mesylate) | Cmax ([1]; ~5 mg sildenafil, average) [ng/mL]
sildenafil mesylate | only negligible or slight level of erythema and edema | – | – | – | – | –
sildenafil acetate | tissue necrosis and scaring observed in some pigs | 12.6 | 41.614 | 114.97 | 59.21^c % | 95.35
